## Antibody variant affinities, Ab-91 heavy chain, assay 2

The measurements come from Engelhart et al. 2022 (doi:10.1038/s41597-022-01779-4) through the FLAb antibody collection.

Antigen: PDVDLGDISGINAS, a 14-residue peptide of the SARS-CoV-2 spike HR2 region.

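The library (AAYL51) carries one to three amino acid substitutions per variant, with no insertions or deletions. In AlphaSeq, yeast of one mating type display the scFv and yeast of the other type display the target. After mating in shaken culture at 30 °C for 16 h, diploids were selected and their barcode pairs sequenced. Each replicate has its own calibration line, from reference interactions of the BCL2 family. Mating was done three times.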

Parent scFv Ab-91: VL joined to VH by a (GGGGS)3 linker. Changes lie in the heavy chain CDRs alone.
VL: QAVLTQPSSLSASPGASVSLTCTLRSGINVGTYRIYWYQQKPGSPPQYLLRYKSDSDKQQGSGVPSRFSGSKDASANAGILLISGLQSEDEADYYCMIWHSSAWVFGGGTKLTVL
VH: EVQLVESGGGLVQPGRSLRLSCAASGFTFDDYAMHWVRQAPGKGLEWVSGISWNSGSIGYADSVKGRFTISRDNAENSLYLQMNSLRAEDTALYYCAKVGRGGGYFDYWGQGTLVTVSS

Each variant is given by its three heavy chain CDRs, as the data file delimits them; those of the parent are GFTFDDYAMH, GISWNSGSIGYADSVK, VGRGGGYFDY.
Numbers give log10(Kd / nM), so 0 is 1 nM and 3 is 1 µM. Smaller is tighter.
Where no diploid with the target was found in that replicate, the entry reads "nd": below detection, most likely a poor binder, though not proof of it.
Background: pairings of library AAYL51 with three empty control strains gave a value in 21% of cases (median 4.54, 5th percentile 3.26). Values in that range, when seen in few replicates, are hard to tell from nonspecific mating. For each scFv, signals with the empty controls are counted beside the result, with their mean in brackets.
In this assay the parent's reference entry averaged 1.86; its copy inside this library read 0.88.

| # | CDR-H1 | CDR-H2 | CDR-H3 | log10 Kd (nM) by replicate | empty controls |
|---|---|---|---|---|---|
| 1 | GFTFDDYAMH | GISWNSGSIGYADSVK | VGRGGGHFQI | 1.35 1.20 0.81 | 4/9 (4.29) |
| 2 | GQTFDNYAMH | GISWNSGSIGYADHVK | VGRGGGYFDY | 5.97 4.48 4.92 | 1/9 (4.87) |
| 3 | GFTFDDYAMH | GYSWNSGQIGYADSVK | VGIGGGYFDY | nd nd nd | 1/9 (4.12) |
| 4 | GFTFDDYAHH | GTSWNSGSIGYADSVK | VGRGGGRFDY | nd nd nd | 1/9 (3.24) |
| 5 | GFTFDDYAMH | CHSWNSGSIGYADSVK | VGRGGGYFAY | nd nd nd | 0/9 |
| 6 | GFTFDDYAMH | GISWNSGSWGTADSVH | VGRGGGYFDY | nd nd nd | 1/9 (4.74) |
| 7 | GFTFDDYAMH | GISWNSGMIGYVDSVK | VGRGGGYFDY | 2.31 2.53 2.80 | 3/9 (4.21) |
| 8 | GFDFDDYAMW | GIVWNSGSIGYADSVK | VGRGGGYFDY | nd nd nd | 1/9 (4.35) |
| 9 | GYTFMDYAMH | GISWNSGSIGYADSVK | VGRGGGYPDY | 2.49 2.89 2.57 | 3/9 (5.70) |
| 10 | FFDFDDYAMH | GISWNSGSIGYADSVK | VGRGGGYFDY | 1.55 1.74 1.23 | 6/9 (5.35) |
| 11 | GFTFDDYAMH | GSSWNSGSIGYADSVK | VGRGGGYFDC | nd nd nd | 0/9 |
| 12 | GFTTDDYAGH | GISWNSGSIGYADSVK | VGRGGPYFDY | 4.01 6.26 nd | 3/9 (4.87) |
| 13 | GFTFDDYAMH | GFSWNSGSIGYAHSVK | VGRGGGYFDY | nd nd nd | 3/9 (4.36) |
| 14 | GFTFDDYAMH | FISWNSGSIGYADSVF | VGRGGGYFDY | nd nd nd | 0/9 |
| 15 | GFTFDDYAIH | GISWNEGSIGYADSVK | VGPGGGYFDY | nd nd nd | 4/9 (4.09) |
| 16 | GFTFDDDAMH | GISWNSGSIGYADSVK | VGSGGGYFDI | 3.68 5.47 4.43 | 1/9 (4.77) |
| 17 | GFTFDDYAMH | KISWNSGSIGYADKVK | VGRSGGYFDY | nd nd nd | 0/9 |
| 18 | GFTFIDYAMH | LISWNSGSIGYADSVK | VGHGGGYFDY | nd 5.35 nd | 0/9 |
| 19 | QFTFDVYAMH | GISWNSGSIGYADSVK | VGRGGGYFHY | 3.88 nd nd | 1/9 (4.81) |
| 20 | GFKFDWYAMH | GISWNSGSFGYADSVK | VGRGGGYFDY | 2.85 nd 4.48 | 3/9 (3.52) |
| 21 | GFTFDDYAMH | GISDNSGSIGYNDSVK | VGRPGGYFDY | nd nd nd | 0/9 |
| 22 | GFTFDDYAMW | GISWNSGSIGIADSVK | VGRGGGYFNY | 1.52 1.74 2.77 | 0/9 |
| 23 | GFTFDDYAMG | GISWNSRSIGYAMSVK | VGRGGGYFDY | nd nd nd | 0/9 |
| 24 | GGEFDDYVMH | GISWNSGSIGYADSVK | VGRGGGYFDY | nd nd nd | 1/9 (2.92) |
| 25 | YFTFDDYDMH | GISWNSGSIGYADSVK | VGRCGGYFDY | 4.70 4.60 5.77 | 7/9 (4.55) |
| 26 | GFTADDYAMH | GIEPNSGSIGYADSVK | VGRGGGYFDY | nd nd nd | 0/9 |
| 27 | GFTFDDYAMH | GDQWNSGSIGYADSVK | VYRGGGYFDY | 4.77 nd nd | 0/9 |
| 28 | GFTFDDYAIH | GISWNSGSIGYADSVK | VGRWGGSFDY | nd nd nd | 0/9 |
| 29 | GFTFDLYAMH | GISWNSGSQGYVDSVK | VGRGGGYFDY | 3.39 2.71 nd | 0/9 |
| 30 | GFTFDDYAMH | GISWNSGSIGYQSSVK | VGRGLGYFDY | 4.21 nd 5.34 | 3/9 (5.12) |

A selection of 5 entries from above:

| CDR-H1 | CDR-H2 | CDR-H3 | log10 Kd (nM) by replicate | empty controls |
|---|---|---|---|---|
| GFTFDDYAMH | FISWNSGSIGYADSVF | VGRGGGYFDY | nd nd nd | 0/9 |
| GFTADDYAMH | GIEPNSGSIGYADSVK | VGRGGGYFDY | nd nd nd | 0/9 |
| GFTFDDYAMH | GYSWNSGQIGYADSVK | VGIGGGYFDY | nd nd nd | 1/9 (4.12) |
| GGEFDDYVMH | GISWNSGSIGYADSVK | VGRGGGYFDY | nd nd nd | 1/9 (2.92) |
| FFDFDDYAMH | GISWNSGSIGYADSVK | VGRGGGYFDY | 1.55 1.74 1.23 | 6/9 (5.35) |